This is an account of results in patent US20260022143A1, “Cyclic Peptide Inhibitors of IL-23” (JANSSEN PHARMACEUTICA NV, priority 2022, published 2026).

In the first assay the target is T1, IL-23R (Homo sapiens, UniProt Q5VWK5).
T1 construct: host or cells: HEK293
T1 sequence (Q5VWK5 24-629): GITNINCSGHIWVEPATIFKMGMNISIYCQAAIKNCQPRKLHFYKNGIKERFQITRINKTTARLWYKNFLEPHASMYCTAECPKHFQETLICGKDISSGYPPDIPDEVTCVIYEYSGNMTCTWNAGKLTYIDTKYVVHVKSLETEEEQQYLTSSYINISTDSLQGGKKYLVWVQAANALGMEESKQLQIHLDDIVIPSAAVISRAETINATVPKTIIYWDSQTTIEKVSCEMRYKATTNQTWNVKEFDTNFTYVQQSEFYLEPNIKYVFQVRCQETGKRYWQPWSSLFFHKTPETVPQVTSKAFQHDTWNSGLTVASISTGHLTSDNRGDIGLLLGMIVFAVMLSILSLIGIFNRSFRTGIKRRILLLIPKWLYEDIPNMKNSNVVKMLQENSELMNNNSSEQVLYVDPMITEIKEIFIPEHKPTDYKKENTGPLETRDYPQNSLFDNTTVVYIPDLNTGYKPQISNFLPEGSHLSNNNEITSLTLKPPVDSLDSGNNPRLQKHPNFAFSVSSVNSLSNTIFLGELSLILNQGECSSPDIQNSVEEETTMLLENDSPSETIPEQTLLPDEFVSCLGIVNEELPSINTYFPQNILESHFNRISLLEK
Nature of the assay: IL23R Reporter Assay. It counts as cell-based. The settings on record: HEK293 cells containing IL-23R, IL-12RP1 and STAT-inducible firefly luciferase reporter; 10 ng/mL IL-23 (EC90); 5 h at 37° C.; read-out: IL23R Reporter Assay. Background: In a reporter assay the amount or activity of a reporter protein is the signal.
Take `CC(=O)NCCCC[C@@H]1NC(=O)[C@H](Cc2c[nH]c3c(-c4cccc(NC(C)=O)c4)cccc23)NC(=O)[C@H]([C@@H](C)O)NC(=O)[C@H](CC(N)=O)NC(=O)[C@@H](NC(=O)[C@@H](CCCNC(=N)N)NC(=O)CCOCCOCC[N+](C)(C)C)C(C)(C)SSC(C)(C)[C@@H](C(=O)N[C@@H](Cc2ccc(OCCN)cc2)C(=O)N[C@@H](Cc2ccc3ccccc3c2)C(=O)NC2(C(=O)N[C@@H](CCC(=O)O)C(=O)N[C@@H](CC(N)=O)C(=O)N[C@@H](Cc3cncc(C)c3)C(=O)N(C)CC(N)=O)CCOCC2)NC1=O` [compound 536, cPEG3aCO-r-Pen(3)-N-T-7(3NAcPh)W-K(Ac)-Pen(3)-AEF-2Nal-THP-E-N-5MePyridinAla-Sar-CONH2]: the IC50 amounted to 0.0029 µM.

With `CC(=O)NCCCC[C@@H]1NC(=O)[C@H](Cc2c[nH]c3c(C)cccc23)NC(=O)[C@H]([C@@H](C)O)NC(=O)[C@H](CC(N)=O)NC(=O)[C@@H](NC(C)=O)C(C)(C)SSC(C)(C)[C@@H](C(=O)N[C@@H](Cc2ccc(OCC[N+](C)(C)C)cc2)C(=O)N[C@@H](Cc2ccc3ccccc3c2)C(=O)NC2(C(=O)N[C@@H](CCCCNC(C)=O)C(=O)N[C@@H](CC(N)=O)C(=O)N[C@@H](Cc3cccnc3)C(=O)N(C)CC(N)=O)CCOCC2)NC1=O` [compound 561, MeCO-Pen(3)-N-T-7MeW-K(Ac)-pen(3)-AEF(NMe3)-2Nal-THP-K(Ac)-N-3Pya-Sar-CONH2], the IC50 is 0.0023 µM.

Regarding `CC(=O)N(C)CCCC[C@@H]1NC(=O)[C@H](Cc2c[nH]c3c(C)cccc23)NC(=O)[C@H]([C@@H](C)O)NC(=O)[C@H](CC(=O)N(C)C)NC(=O)[C@@H](NC(=O)CCOCCOCC[N+](C)(C)C)C(C)(C)SSC(C)(C)[C@@H](C(=O)N[C@@H](Cc2ccc(OCCN)cc2)C(=O)N[C@@H](Cc2ccc3ccccc3c2)C(=O)NC2(C(=O)N[C@@H](CCCCN(C)C(C)=O)C(=O)N[C@@H](CC(N)=O)C(=O)N[C@@H](Cc3cccnc3)C(=O)N(C)CC(N)=O)CCOCC2)NC1=O` [compound 169, cPEG3aCO-Pen(3)-N(N(Me)2)-T-7MeW-K(NMeAc)-Pen(3)-AEF-2Nal-THP-K(NMeAc)-N-3Pya-Sar-CONH2], the IC50 was determined as 0.0023 µM.

`CC(=O)N(C)CCCC[C@@H]1NC(=O)[C@H](Cc2c[nH]c3c(C)cccc23)NC(=O)[C@H]([C@@H](C)O)NC(=O)[C@H](CC(=O)N(C)C)NC(=O)[C@@H](NC(=O)C(F)(F)F)C(C)(C)SSC(C)(C)[C@@H](C(=O)N[C@@H](Cc2ccc(OCCN(C)C)cc2)C(=O)N[C@@H](Cc2ccc3ccccc3c2)C(=O)NC2(C(=O)N[C@@H](CCC(=O)N(C)C)C(=O)N[C@@H](CC(N)=O)C(=O)N[C@@H](Cc3cccnc3)C(=O)N(C)CC(N)=O)CCOCC2)NC1=O` [compound 79, CF3CO-Pen(3)-N(N(Me)2)-T-7MeW-K(NMeAc)-Pen(3)-AEF(N(Me)2)-2Nal-THP-Q(N(Me)2)-N-3Pya-Sar-CONH2]: the IC50 worked out at 0.0039 µM.

On to `CC(=O)NCCCC[C@@H]1NC(=O)[C@H](Cc2c[nH]c3c(C)cccc23)NC(=O)[C@H]([C@@H](C)O)NC(=O)[C@H](CC(N)=O)NC(=O)[C@@H](NC(C)=O)C(C)(C)SSC(C)(C)[C@@H](C(=O)N[C@@H](Cc2ccc(OCCOCCOCC[N+]3(C)CCOCC3)cc2)C(=O)N[C@@H](Cc2ccc3ccccc3c2)C(=O)NC2(C(=O)N[C@@H](CCC(=O)O)C(=O)N[C@@H](CC(N)=O)C(=O)N[C@@H](Cc3cccnc3)C(=O)N(C)CC(N)=O)CCOCC2)NC1=O` [compound 432], for which the IC50 was 0.0036 µM.

In the case of `CC(=O)N(C)CCCC[C@@H]1NC(=O)[C@H](Cc2c[nH]c3c(C)cccc23)NC(=O)[C@H]([C@@H](C)O)NC(=O)[C@H](CC(=O)N(C)C)NC(=O)[C@@H](NC(=O)CCOCCOCC[N+](C)(C)C)C(C)(C)SSC(C)(C)[C@@H](C(=O)N[C@@H](Cc2ccc(OCCN(CCOCC[N+](C)(C)C)CCOCC[N+](C)(C)C)cc2)C(=O)N[C@@H](Cc2ccc3ccccc3c2)C(=O)NC2(C(=O)N[C@@H](CCCCN(C)C(C)=O)C(=O)N[C@@H](CC(N)=O)C(=O)N[C@@H](Cc3cccnc3)C(=O)N(C)CC(=O)N(C)C)CCOCC2)NC1=O` (relative stereo) [compound 266, cPEG3aCO-Pen(3)-N(N(Me)2)-T-7MeW-K(NMeAc)-Pen(3)-AEF(BisPEG2a)(S*)-2Nal-THP-K(NMeAc)-N-3Pya-Sar-CON(Me)2], the IC50 worked out at 0.0024 µM.

In the case of `CC(=O)N(C)CCCC[C@@H]1NC(=O)[C@H](Cc2c[nH]c3c(C)cccc23)NC(=O)[C@H]([C@@H](C)O)NC(=O)[C@H](CC(=O)N(C)C)NC(=O)[C@@H](NC(=O)CCOCCOCC[N+](C)(C)C)C(C)(C)SSC(C)(C)[C@@H](C(=O)N[C@@H](Cc2ccc(OCCCCC[N+](C)(C)C)cc2)C(=O)N[C@@H](Cc2ccc3ccccc3c2)C(=O)N[C@H](C(=O)N[C@@H](CCCCN(C)C(C)=O)C(=O)N[C@@H](CC(N)=O)C(=O)N[C@@H](Cc2cccnc2)C(=O)N(C)CC(=O)N(C)C)C2CCCCC2)NC1=O` [compound 340, cPEG3aCO-Pen(3)-N(N(Me)2)-T-7MeW-K(NMeAc)-Pen(3)-TMAPF-2Nal-Chg-K(NMeAc)-N-3Pya-Sar-CON(Me)2], the IC50 is 0.0028 µM.

As to `CC(=O)N(C)CCCC[C@@H]1NC(=O)[C@H](Cc2c[nH]c3c(C)cccc23)NC(=O)[C@H]([C@@H](C)O)NC(=O)[C@H](CCCCNC(=O)CCOCCOCC[N+](C)(C)C)NC(=O)[C@@H](NC(=O)CCOCCOCC[N+](C)(C)C)C(C)(C)SSC(C)(C)[C@@H](C(=O)N[C@@H](Cc2ccc(OCCCCC[N+](C)(C)C)cc2)C(=O)N[C@@H](Cc2ccc3ccccc3c2)C(=O)NC2(C(=O)N[C@@H](CCCCN(C)C(C)=O)C(=O)N[C@@H](CC(N)=O)C(=O)N[C@@H](Cc3cccnc3)C(=O)N(C)CC(=O)N(C)C)CCOCC2)NC1=O` [compound 393, cPEG3aCO-Pen(3)-K(cPEG3a)-T-7MeW-K(NMeAc)-Pen(3)-TMAPF-2Nal-THP-K(NMeAc)-N-3Pya-Sar-CON(Me)2], the IC50 was found to be 0.0019 µM.

On to `CC(=O)N(C)CCCC[C@@H]1NC(=O)[C@H](Cc2c[nH]c3c(C)cccc23)NC(=O)[C@H]([C@@H](C)O)NC(=O)[C@H](CC(=O)N(C)C)NC(=O)[C@@H](NC(=O)CCOCCOCC[N+](C)(C)C)C(C)(C)SSC(C)(C)[C@@H](C(=O)N[C@@H](Cc2ccc(OCCN(C)C)cc2)C(=O)N[C@@H](Cc2ccc3ccccc3c2)C(=O)NC2(C(=O)N[C@@H](CCCCN(C)C(C)=O)C(=O)N[C@@H](CC(N)=O)C(=O)N[C@@H](Cc3cccnc3)C(=O)N(C)CC(=O)N(C)C)CCOCC2)NC1=O` [compound 321, cPEG3aCO-Pen(3)-N(N(Me)2)-T-7MeW-K(NMeAc)-Pen(3)-AEF(N(Me)2)-2Nal-THP-K(NMeAc)-N-3Pya-Sar-CON(Me)2], for which the IC50 came to 0.0013 µM.

Turning to `CC(=O)N(C)CCCC[C@@H]1NC(=O)[C@H](Cc2c[nH]c3c(C)cccc23)NC(=O)[C@H]([C@@H](C)O)NC(=O)[C@H](CC(=O)N(C)C)NC(=O)[C@@H](NC(=O)[C@H](CCCC[N+](C)(C)C)NC(=O)C(F)(F)F)C(C)(C)SSC(C)(C)[C@@H](C(=O)N[C@@H](Cc2ccc(OCCN(C)C)cc2)C(=O)N[C@@H](Cc2ccc3ccccc3c2)C(=O)NC2(C(=O)N[C@@H](CCC(=O)O)C(=O)N[C@@H](CC(N)=O)C(=O)N[C@@H](Cc3cccnc3)C(=O)N(C)CC(=O)N(C)C)CCOCC2)NC1=O` [compound 93, CF3CO-K(Me)3-Pen(3)-N(N(Me)2)-T-7MeW-K(NMeAc)-Pen(3)-AEF(N(Me)2)-2Nal-THP-E-N-3Pya-Sar-CON(Me)2], the IC50 came out at 0.0036 µM.

As to `CC(=O)N(C)CCCC[C@@H]1NC(=O)[C@H](Cc2c[nH]c3c(C)cccc23)NC(=O)[C@H]([C@@H](C)O)NC(=O)[C@H](CC(=O)N(C)C)NC(=O)[C@@H](NC(=O)CCOCCOCC[N+](C)(C)C)C(C)(C)SSC(C)(C)[C@@H](C(=O)N[C@@H](Cc2ccc(OCC3CCC[N+](C)(C)C3)cc2)C(=O)N[C@@H](Cc2ccc3ccccc3c2)C(=O)NC2(C(=O)N[C@@H](CCCCN(C)C(C)=O)C(=O)N[C@@H](CC(N)=O)C(=O)N[C@@H](Cc3cccnc3)C(=O)N(C)CC(=O)N(C)C)CCOCC2)NC1=O` (stereo partly drawn) [compound 215, cPEG3aCO-Pen(3)-N(N(Me)2)-T-7MeW-K(NMeAc)-Pen(3)-DMMMF-2Nal-THP-K(NMeAc)-N-3Pya-Sar-CON(Me)2], the IC50 worked out at 0.0023 µM.

Consider `CC(=O)NCCCC[C@@H]1NC(=O)[C@H](Cc2c[nH]c3c(C)cccc23)NC(=O)[C@H]([C@@H](C)O)NC(=O)[C@H](CC(N)=O)NC(=O)[C@@H](NC(=O)C(F)(F)F)C(C)(C)SSC(C)(C)[C@@H](C(=O)N[C@@H](Cc2ccc(OCCN(C)C)cc2)C(=O)N[C@@H](Cc2ccc3ccccc3c2)C(=O)NC2(C(=O)N[C@@H](CCCCNC(C)=O)C(=O)N[C@@H](CC(N)=O)C(=O)N[C@@H](Cc3cccnc3)C(=O)N(C)CC(N)=O)CCOCC2)NC1=O` [compound 53], for which the IC50 amounted to 0.0039 µM.

The assay is the same for the next values; noted with them: read-out: IL23R Reporter Assay (micromolar); HEK293 cells containing IL-23R, IL-12RP1 and STAT-inducible firefly luciferase reporter; 10 ng/mL IL-23 (EC90); 5 h at 37° C.
Turning to “C12gEPEG2PEG2CO-hk(Me)3-Pen(3)-N(N(Me)2)-T-7MeW-K(PEG2PEG2gEC12)-Pen(3)-TMAPF-2Nal-THP-K(NMeAc)-N-3Pya-Sar-CON(Me)2 [compound 323]”, the IC50 worked out at 0.094 µM.
